Measurements reported in patent publication US6881414B2, “Mild cosmetic composition with stabilized retinoids” (Unilever Home & Personal Care USA, division of Conopco, Inc., priority 2000, dated 2005).

Biological target: T1, LRAT (Bos taurus, UniProt Q9BGL2)
T1 construct: followed by approximately 15 μg of RPE microsomal protein; tissue W. L. Lawson Co; host or cells: bovine retinal pigment epithelium microsomes
T1 sequence (Q9BGL2 1-230): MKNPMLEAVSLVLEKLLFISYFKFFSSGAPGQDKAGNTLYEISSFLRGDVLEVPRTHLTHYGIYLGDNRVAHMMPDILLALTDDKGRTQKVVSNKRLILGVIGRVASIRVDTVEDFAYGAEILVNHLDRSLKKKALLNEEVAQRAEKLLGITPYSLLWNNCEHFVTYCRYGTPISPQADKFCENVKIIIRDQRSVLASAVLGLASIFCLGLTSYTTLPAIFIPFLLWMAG
Assay: LRAT activity assay, RPE microsomes (to identify B1)
Assay type: biochemical, bovine
Settings: for % Inhibition LRAT (100 μm): compound 100 μm

| SMILES | % Inhibition LRAT (100 μm) | % Inhibition LRAT (10 μm) (compound 10 μm) |
| --- | --- | --- |
| CC(C)(O)CCCC1=CCC(C=O)CC1 (stereo not drawn) [Lyral] | 71% |  |
| CCCCCCCCCCCCCCCC(=O)NCCO [Palmitamide-MEA] |  | 12% |
| C[C@H]1[C@H](C)CC[C@]2(C(=O)O)CC[C@]3(C)C(=CC[C@@H]4[C@@]5(C)CC[C@H](O)C(C)(C)[C@@H]5CC[C@]43C)[C@H]12 [Urosolic Acid] | 28% |  |
